Assays:
[1] = molecular target: T1, Ornithine decarboxylase (Rattus norvegicus) (UniProt P09057); conditions: 5 uM
T1 sequence (whole entry): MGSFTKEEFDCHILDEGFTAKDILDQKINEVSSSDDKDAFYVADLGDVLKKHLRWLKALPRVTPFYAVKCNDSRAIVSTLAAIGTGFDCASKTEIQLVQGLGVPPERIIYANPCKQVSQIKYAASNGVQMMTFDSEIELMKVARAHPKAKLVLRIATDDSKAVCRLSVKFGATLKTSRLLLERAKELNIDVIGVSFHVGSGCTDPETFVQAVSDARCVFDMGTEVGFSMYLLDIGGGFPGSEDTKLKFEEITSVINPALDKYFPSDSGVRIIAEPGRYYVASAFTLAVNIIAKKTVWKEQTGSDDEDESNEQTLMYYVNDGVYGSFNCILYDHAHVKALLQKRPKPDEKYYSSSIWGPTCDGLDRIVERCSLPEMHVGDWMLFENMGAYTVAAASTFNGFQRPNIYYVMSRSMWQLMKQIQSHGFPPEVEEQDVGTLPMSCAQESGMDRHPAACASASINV

[2] = molecular target: T1, Ornithine decarboxylase (Rattus norvegicus); conditions: 5 uM; remark: listed apart in the source
[3] = molecular target: T1, Ornithine decarboxylase (Rattus norvegicus); conditions: 5 uM; remark: listed apart in the source
[4] = molecular target: T2, S-adenosylmethionine decarboxylase proenzyme (Homo sapiens) (UniProt P17707)
T2 sequence (whole entry): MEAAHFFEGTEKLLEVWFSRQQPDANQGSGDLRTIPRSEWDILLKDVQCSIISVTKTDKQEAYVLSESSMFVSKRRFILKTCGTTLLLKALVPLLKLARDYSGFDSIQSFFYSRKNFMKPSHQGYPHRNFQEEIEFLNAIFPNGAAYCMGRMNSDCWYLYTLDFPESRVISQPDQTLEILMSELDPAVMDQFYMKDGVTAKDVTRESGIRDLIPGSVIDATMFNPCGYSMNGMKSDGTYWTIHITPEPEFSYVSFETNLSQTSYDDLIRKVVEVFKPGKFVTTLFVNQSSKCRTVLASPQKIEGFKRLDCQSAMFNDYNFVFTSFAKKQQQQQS

`C#CC(N)CC(F)(F)CN` (centres undefined) was tested, and the Inactivation time [1] was 9 min, the Inactivation time [2] was > 200 min and the Inactivation time [3] was 85 min. For the same compound, the Ka [4] was 1.

Source: ChEMBL document CHEMBL1124320, “2,2-Difluoro-5-hexyne-1,4-diamine: a potent enzyme-activated inhibitor of ornithine decarboxylase” (J Med Chem, 1989)
